# Ab-14 light chain CDR variants: yeast mating affinities

The target is the same throughout: PDVDLGDISGINAS, from the HR2 region of SARS-CoV-2 spike.

Parent scFv Ab-14: VH joined to VL by the linker GGGGSGGGGSGGGGS. Changes lie in the light chain CDRs alone.
VH: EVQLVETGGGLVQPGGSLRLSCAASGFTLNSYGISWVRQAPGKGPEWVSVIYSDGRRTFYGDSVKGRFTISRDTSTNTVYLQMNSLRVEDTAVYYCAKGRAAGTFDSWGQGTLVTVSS
VL: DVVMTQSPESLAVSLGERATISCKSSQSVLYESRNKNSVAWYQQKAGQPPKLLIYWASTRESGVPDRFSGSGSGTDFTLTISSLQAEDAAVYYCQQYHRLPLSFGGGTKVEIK

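Designed CDR sequences, proposed from the first random library and measured here. Group labels follow the data file (Ctrl: baseline library sampled from a position-specific scoring matrix, with some repeated check sequences; GP: Gaussian process model; HC: hill climbing; Gen: genetic algorithm; Gibbs: Gibbs sampling; a sequence that several methods proposed may carry one label only). In AlphaSeq, yeast of one mating type display the scFv and yeast of the other type display the target. Mating (16 h, 30 °C) was followed by selection of diploids and sequencing of their barcodes. A regression on co-assayed BCL2-family reference pairs converts the normalised counts of each replicate to an apparent Kd. Mating was done six times.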

The parent's light chain CDRs are KSSQSVLYESRNKNSVA, WASTRES, QQYHRLPLS; each variant's own CDRs replace them letter for letter.
Variants here have at most six changes.
The Kd shown is the geometric mean over detected replicates; a lower Kd is a better binder.
An entry "no signal" has no value in the source: the pair was not observed among the diploids in any replicate. This suggests poor binding but is not conclusive.
The authors' rule: three or more of the six replicates give a measured affinity, fewer mean a poor binder.

| CDR-L1 | CDR-L2 | CDR-L3 | group | Kd (apparent) | seen in | control signals |
|---|---|---|---|---|---|---|
| KFSQSVLYESRNKNSVA | GGSTRES | QQYHRLPLS | GP_Gen | 270 pM | 6/6 | 0/18 |
| KGSQSVLYESRNKASVA | SARTRMS | QQYHRLPLS | Ctrl | 47 nM | 5/6 | 0/18 |
| KSSQSVVYESRNKNSVA | SASTRES | QQYHRLPLI | Ctrl | 7.0 nM | 6/6 | 1/18 |
| KLSQSQLYESRNKNNVA | NASQRES | QQYHRLPLS | GP_Gen | 690 pM | 6/6 | 1/18 |
| KSSQSFLYESRNKNSVA | GASTRES | QCYHRLPLS | GP_HC | 5.0 nM | 6/6 | 1/18 |
| KISQHVLYESPNKNSVA | DASTRES | QQYHRLPLS | Ctrl | 1.4 nM | 6/6 | 3/18 |
| KLDQSTLYESRNQNSVA | WASTRES | QQYHRLPLS | GP_HC | 1.2 nM | 6/6 | 1/18 |
| KFSQSVLMESRNKNSVA | DASTRES | QQYHRLPLS | GP_Gen | 730 pM | 6/6 | 3/18 |
| KVSQSVGYESGTKNSVA | NASHRES | QQYHRLPLS | GP_HC | 10 nM | 6/6 | 3/18 |
| KQSQSLLYESRNKNSVA | MASTRES | QQYHRLPLS | GP_HC | 38 nM | 6/6 | 1/18 |
| HISQSVLYESRNKNSVA | NGSTRES | QQYHRLPLS | GP_HC | 400 pM | 6/6 | 3/18 |
| KSSQDVLYESRNKNSVW | WASTRES | QQYHRLPLS | Ctrl | no signal | 0/6 | 0/18 |
| KLSQSQEYESRNKNSVA | NASTRLT | QQYHRLPLS | GP_Gibbs | 1.3 nM | 6/6 | 0/18 |
| KLSQSVLYESRNKNSVA | GASTRSS | QQYHRLPLS | GP_Gen | 750 pM | 6/6 | 0/18 |
| KSSQSVLYEETNKNVVA | WASTRES | QQYHRLPLS | Ctrl | 24 nM | 6/6 | 0/18 |
| KFSQSVLYESRHKNSVA | WASTREV | QQCHRLPLS | Ctrl | no signal | 0/6 | 1/18 |
| NSSQSWLYESRNKNSVA | GANTRES | QQYHRLPLS | GP_HC | 330 pM | 6/6 | 1/18 |
| KSSQSELQESRNKNSVA | DASTRES | QQYWRLPLS | GP_HC | 1.2 nM | 6/6 | 1/18 |
| KSSGSYLYESRNTNSVA | EASTRES | QQYHRLPLS | GP_HC | 1.2 nM | 6/6 | 0/18 |
| KFSQSVLYESRTKNSVA | NASTRES | QQYHQLPLS | GP_HC | 3.1 nM | 6/6 | 0/18 |
| KSSQSRLYESQNKNSVA | WASTRES | QQYHRLPLS | Ctrl | 35 nM | 4/6 | 1/18 |
| KSSQSVLYEDRVKNSVA | WASTRES | QQYHRLPLS | Ctrl | 3.2 nM | 1/6 | 0/18 |
| KFSQKVLYEHRTQNSVA | NASTRES | QQYHRLPLS | GP_HC | 460 pM | 6/6 | 0/18 |
| KSSQSVLYESGNKNSVA | HASTRES | QQYHRLPLS | GP_HC | 1.2 nM | 6/6 | 0/18 |
| KTSQKVLYESRNKNSVA | YASTRES | QQYHRLPLS | Ctrl | 9.4 nM | 5/6 | 0/18 |
| KSSQSVLYESRNKNSVA | QASTLES | QQYHELPLS | Ctrl | 1.3 nM | 6/6 | 1/18 |
| KLSQSMLYESRNKNSVA | SASQRES | QQYHRLPLS | GP_Gen | 2.6 nM | 6/6 | 0/18 |
| KLRQSGLYESRNKNSVA | QASTRES | QQYHRLPLS | GP_HC | 3.8 nM | 6/6 | 0/18 |
| KLSQSFLYESRNKNNVA | GASTRES | QQYHRLTLS | GP_HC | no signal | 0/6 | 0/18 |
| KSSISVLYESRNENSVA | WASTRES | QQYHRLPLS | Ctrl | 4.1 µM | 1/6 | 0/18 |
| KLSQSDEYESRNKNSVA | HASTRES | QQYHRLPLS | GP_Gen | 770 pM | 6/6 | 0/18 |
| KLDQSFLYESRNKNSVA | EASERES | QQYHRLPLS | GP_Gibbs | 600 pM | 6/6 | 0/18 |
| KLPQSVLYESRNKNSVA | GASQRES | QQYHRLPLS | GP_Gen | 1.3 nM | 6/6 | 2/18 |
| HQSMSVLYESRNKNSVA | NGSTREV | QQYHRLPLS | GP_HC | 2.6 nM | 6/6 | 2/18 |
| KLQQSELYESRNKNSVA | NASTRCS | QQYHRLPLS | GP_Gen | 770 pM | 6/6 | 1/18 |
| HSSPSVEYESRNKNSVA | NASERES | QQYHRLPLS | GP_HC | 2.3 nM | 6/6 | 0/18 |
| KSAASELLESRNKNSVA | SASTRES | QQYHRLPLS | GP_Gibbs | 960 pM | 6/6 | 1/18 |
| KLSQSVLYQDRNKNSVA | NASQRES | QQYHRLPLS | GP_Gen | 1.3 nM | 6/6 | 3/18 |
| KLSQSELYESRQKNSVA | NASTRMS | QQYHRLPLS | GP_Gen | 3.7 nM | 6/6 | 2/18 |
| KSSQAELYESRQKNSVA | NASYRED | QQYHRLPLS | GP_Gibbs | 1.1 nM | 6/6 | 1/18 |
| KCLQSVLYESRNKNSVA | HASTRED | QQYHQLPLS | GP_HC | 2.1 nM | 6/6 | 1/18 |
| KLSISVLYESSNSNSVA | WASTRES | QQKHRLPLS | Ctrl | 440 nM | 2/6 | 0/18 |
| KSSQSVLYESRNKNSVA | WASTREK | QQYHRLPES | Ctrl | no signal | 0/6 | 0/18 |
| KVSQSVLFQSRNKNSVA | DASTRES | QQYHRLPLS | GP_HC | 480 pM | 6/6 | 0/18 |
| KWAQSVLYESRNKNSVA | WASTRES | QQYHMLPLS | Ctrl | 160 nM | 2/6 | 0/18 |
| KSSQSWLYESRNKNSVA | HASTRED | QQYHRLELS | Ctrl | no signal | 0/6 | 0/18 |
| KSSHSVLYNSRNKNSVA | WASTRES | QQYHRLPLS | Ctrl | 39 nM | 5/6 | 0/18 |
| KSSQSVLYESRNKNSVA | WASTRES | QQYHTLPLS | Ctrl | 220 nM | 4/6 | 1/18 |
| KLSLSWLYESRNKNSVA | NASTRES | QQYHRLPLS | GP_HC | 520 pM | 6/6 | 2/18 |
| KLSQSVLYESRNKNSVA | NASTRMS | QAYHRLPLS | GP_Gen | 1.9 nM | 6/6 | 4/18 |
| KSSQSVLYEERNKNSVA | MASMRES | QQYHRLPLS | Ctrl | 64 nM | 6/6 | 3/18 |
| KFSQSVLYEDRVKNSVA | NASQRES | QQYHRLPLS | GP_Gen | 1.2 nM | 6/6 | 4/18 |
| KFSQSVLYESRNKNQVA | YASMRES | QQYHRLLLS | Ctrl | no signal | 0/6 | 0/18 |
| KISQSELFESRNKNSVA | DASTRES | QQYHRLPLS | GP_HC | 890 pM | 6/6 | 1/18 |
| KIAQSVVYESRNKNSVA | WASTRES | QQYHRLPLS | Ctrl | 21 nM | 6/6 | 0/18 |
| KLSQSVGMQSRNKWSVA | NASTRES | QQYHRLPLS | GP_Gibbs | 4.2 nM | 6/6 | 1/18 |

The closing 9 entries, repeated:

{"CDR-L1": "KSSQSVLYESRNKNSVA", "CDR-L2": "WASTRES", "CDR-L3": "QQYHTLPLS", "group": "Ctrl", "Kd (apparent)": "220 nM", "seen in": "4/6", "control signals": "1/18"}
{"CDR-L1": "KLSLSWLYESRNKNSVA", "CDR-L2": "NASTRES", "CDR-L3": "QQYHRLPLS", "group": "GP_HC", "Kd (apparent)": "520 pM", "seen in": "6/6", "control signals": "2/18"}
{"CDR-L1": "KLSQSVLYESRNKNSVA", "CDR-L2": "NASTRMS", "CDR-L3": "QAYHRLPLS", "group": "GP_Gen", "Kd (apparent)": "1.9 nM", "seen in": "6/6", "control signals": "4/18"}
{"CDR-L1": "KSSQSVLYEERNKNSVA", "CDR-L2": "MASMRES", "CDR-L3": "QQYHRLPLS", "group": "Ctrl", "Kd (apparent)": "64 nM", "seen in": "6/6", "control signals": "3/18"}
{"CDR-L1": "KFSQSVLYEDRVKNSVA", "CDR-L2": "NASQRES", "CDR-L3": "QQYHRLPLS", "group": "GP_Gen", "Kd (apparent)": "1.2 nM", "seen in": "6/6", "control signals": "4/18"}
{"CDR-L1": "KFSQSVLYESRNKNQVA", "CDR-L2": "YASMRES", "CDR-L3": "QQYHRLLLS", "group": "Ctrl", "Kd (apparent)": "no signal", "seen in": "0/6", "control signals": "0/18"}
{"CDR-L1": "KISQSELFESRNKNSVA", "CDR-L2": "DASTRES", "CDR-L3": "QQYHRLPLS", "group": "GP_HC", "Kd (apparent)": "890 pM", "seen in": "6/6", "control signals": "1/18"}
{"CDR-L1": "KIAQSVVYESRNKNSVA", "CDR-L2": "WASTRES", "CDR-L3": "QQYHRLPLS", "group": "Ctrl", "Kd (apparent)": "21 nM", "seen in": "6/6", "control signals": "0/18"}
{"CDR-L1": "KLSQSVGMQSRNKWSVA", "CDR-L2": "NASTRES", "CDR-L3": "QQYHRLPLS", "group": "GP_Gibbs", "Kd (apparent)": "4.2 nM", "seen in": "6/6", "control signals": "1/18"}

The parent sequence was in this pool as ten entries: three were never detected, three once, and four in most replicates, with averages from 2.2 nM to 240 nM.
Empty control strains, which show no peptide, gave a signal in 4% of pairings with all light chain designs; the median was 430 nM and 95% of these signals were weaker than 38 nM. No background was subtracted. For each scFv, signals with the empty controls are counted beside the result.
Values of this round are not directly comparable with the first-round values of the same sequences.

Values reported by Li et al. 2023, doi:10.1038/s41467-023-39022-2 (FLAb copy).